Compound activity (PubChem)
ClpP mod: qHTS Assay for Activators of ClpP; ATP-dependent Clp protease proteolytic subunit (Bacillus subtilis (strain 168)), P80244; purified B. subtilis ClpP, FRET peptide cleavage, 20 min; Potency, µM (titrated, usually from 57.5 µM), for the others: at the highest dose activity change, negative = active; 340,000 tested, 1.9% active; AID 651965, 2013; active = well fitted falling curve with a large enough effect; inconclusive = small, poorly fitted or top-dose-only effect; inactive = no such curve, though single readings can be large or run the other way; also: potency is read from the fitted curve at half-maximal effect; the source files actives as falling curves though it sought activators and does not explain the sign; nearly all actives have a fitted effect of over 65% in size
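Buffer: 100 mM Tris/HCl pH8, 100 mM KCl, 0.05% low protease BSA, 2.5% glycerol, 0.01% Tween-20. ClpP 10 microg/mL final; 20 min RT; delta FRET normalized to ADEP and DMSO controls.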
miR-21 reporter: raises the signal of a miR-21 reporter. HeLa miR-21 FLuc reporter, luciferase, 48 h. 340,000 tested, under 10 active. Potency, µM (highest dose often 38.3 µM), for the others: at the highest dose reporter change, positive = more light; active = well fitted rising curve with a large enough effect; inconclusive = small, poorly fitted or top-dose-only effect; inactive = no such curve, though single readings can be large or run the other way;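 note: % of control where 0% means no effect; miR-21 action dims this reporter so a rising signal means less miR-21 action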
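HeLa cells endogenously expressing miR-21, stably carrying CMV-driven firefly luciferase with a downstream miR-21 binding site, 2000 cells/well. Titrations up to approximately 40 uM, 48 hours; luciferase luminescence read.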
Nrf2 block: blocks Nrf2 signaling | A549 ARE-Fluc reporter, luciferase luminescence, 18-24 h | Potency, µM (doses to about 46 µM), for inactives: at the highest dose activity change, negative = inhibition, hits mostly inhibitors | 360,000 tested, 2.1% active; also: potency is read from the fitted curve at half-maximal effect; % is scaled to controls: 0 for no effect and ±100 for the full control effect; nearly all actives have a fitted effect of over 60% in size
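Cells were seeded and rested 2 h, then exposed to compounds for 18-24 h. CellTiter-Fluor was read first as a viability measure. BugLite was added 15 min before the final luminescent read of ARE-luciferase activity in A549 cells.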
A549 tox: counter-screen for Nrf2 inhibitors: cytotoxicity in A549 cells. AID 504648. Potency, µM (top dose mostly 46 µM), inactives show at the highest dose activity change, negative = cytotoxicity, usual class: inhibitors. 390,000 tested, 0.16% active. A549 ARE-Fluc cells, CellTiter-Fluor viability, 18-24 h; also: potency is read from the fitted curve at half-maximal effect; % is scaled to controls: 0 for no effect and ±100 for the full control effect
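A549 ARE_Fluc cells in 5% FBS OPTI-MEM were exposed to compounds in concentration-response for 18-24 h at 37 deg C. Viability was read by CellTiter-Fluor fluorescence (Ex 405/Em 525) after 30 min, before the luciferase read.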
Nrf2 activator: Nrf2 pathway activation; AREc32 ARE-luciferase reporter (MCF7-derived line), luminescence, 24 h; Potency, µM (doses to about 46.1 µM), for inactives: at the top dose activation, usual class: activators; 410,000 tested, 0.31% active; AID 624171; also: potency is read from the fitted curve at half-maximal effect; % of control where 0% means no effect; nearly all actives have a fitted effect of over 65% in size
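AREc32_Fluc, 1000 cells/well, OPTI-MEM + 5% FBS, o/n 37 deg C 5% CO2; 23 nL cpd by pin tool, 24 hr; Steady-Glo 30 min RT, luminescence.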
p53 reactivation: restores transcriptional activity of mutant p53; H1299 p53-A138V BP100-luciferase reporter, luminescence, 24 h; Potency, µM (titrated, usually from 92.2 µM), inactives show top-dose activity change, positive = activation, hits mostly activators; 320,000 tested, 0.063% active; AID 504706; also: potency is read from the fitted curve at half-maximal effect; % of control where 0% means no effect; nearly all actives have a fitted effect of over 45% in size
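p53-null H1299 cells stably carrying temperature-sensitive p53-A138V and a BP100-luciferase reporter were pinned with compounds (4-point, 1:5 series) and held 24 hrs at 37 deg C. Luminescence was read 10 min after detection reagent.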
* marks the source's active call; other numbers are inactive results; ? = inconclusive; . = not tested or not shown; [ ] = remark or other dose. A selection: hits, their analogues and other compounds. The true share with any hit is near 3.7%. Unless noted, calls follow the shape of the dose curve; as a rule, active = well fitted curve in the direction sought with a large enough effect; inconclusive = small, poorly fitted or top-dose-only effect, or another doubt; inactive = no such curve, though single readings can be large; an effect the other way counts as inactive or inconclusive.

SMILES | ClpP mod | miR-21 reporter | Nrf2 block | A549 tox | Nrf2 activator | p53 reactivation
CCc1ccc(-n2nc(CO)c(C(=O)NCc3ccccc3Cl)n2)cc1 | ? | -7% | -2% | 1% | 0% | .
CC(C)Cn1c(=O)c2ccccc2n2c(CCC(=O)N3CCN(c4ccccc4F)CC3)nnc12 | -2% | 1% | -10% | -8% | 4% | .
COC(=O)c1cc2ccccc2c(-c2c(OC)c(C(=O)OC)cc3ccccc23)c1OC | 25µM* | 12% | ? | ? | 4% | -2%
COC(=O)c1cc2ccccc2c([N+](=O)[O-])c1O | . | . | -19% | 2% | 0% | .
COc1ccc(/C=C2\SC(=S)N(CCC(=O)NCCCN3CCOCC3)C2=O)cc1 | -2% | 1% | ? | 12µM* | 12% | ?
Cc1ccc(/C=C2\SC(=S)N(CCC(=O)NCCCN3CCOCC3)C2=O)cc1 | . | 4% | ? | 15µM* | ? | 18%
CCc1ccc(/C=C2\SC(=S)N(CCC(=O)NCCCN3CCOCC3)C2=O)cc1 | 2% | 1% | ? | ? | 25% | ?
COc1ccc(C2=CC(c3ccco3)n3ncnc3N2)cc1 (stereo not given) | . | -2% | 23% | ? | ? | 1%
Clc1ccc(C2=CC(c3ccco3)n3ncnc3N2)cc1 (stereo not given) | 32µM* | 0% | 16% | ? | ? | 0%
Clc1ccccc1C1=CC(c2ccco2)n2ncnc2N1 (stereo not given) | -1% | -3% | 4% | 1% | 11µM* | -3%
CCn1cc(C(=O)OCC(=O)Nc2cc(Cl)ccc2OC)c(=O)c2ccc(C)nc21 | -2% | -6% | 10% | -4% | 0% | .
N#Cc1ccc(NC(=O)COC(=O)C2Cc3ccccc3CN2C(=O)c2ccccc2)cc1 (stereo not given) | 0% | 0% | 7.3µM* | ? | -1% | -1%
COC(=O)c1ccc(C(=O)OC)c(NC(=S)N2CCOCC2)c1 | 32µM* | -1% | -8% | 2% | 1% | -3%
COc1ccc(-c2c([C@H]3[C@H]4C=CC[C@@H](C)[C@@H]4C(=O)N3Cc3ccccc3)ccc3ccccc23)cc1OC | ? | 30% | 18µM* | ? | 7% | -1%
COc1ccc(-c2ccccc2[C@H]2[C@@H]3C=CC[C@@H](C)[C@@H]3C(=O)N2Cc2ccccc2)cc1 | -1% | . | 18µM* | ? | 3% | -5%
COc1ccc(Br)cc1[C@H]1[C@H]2C=CC[C@@H](C)[C@@H]2C(=O)N1Cc1ccccc1 | -3% | 12% | 21µM* | -17% | -1% | 5%
COc1ccc(-c2c(C3C4C=CCC(C)C4C(=O)N3Cc3ccccc3)ccc3ccccc23)cc1 (stereo not given) | . | . | 21µM* | -6% | . | .
COc1ccc(/C=C/c2ccccc2)cc1C1C2C=CCC(C)C2C(=O)N1Cc1ccccc1 (stereo not given) | . | . | ? | 12% | . | .
COc1ccc(-c2ccc(C3C4C=CCC(C)C4C(=O)N3Cc3ccccc3)c(F)c2)cc1 (stereo not given) | . | . | ? | -8% | . | .
CCCCCn1c(CCNC(=O)c2cccc(C)c2)nc2ccccc21 | -2% | ? | -9%[9.27 µM] | -10% | 0% | .

Sorted by value in miR-21 reporter (ascending): four of the compounds above.
compound	miR-21 reporter	Nrf2 activator	p53 reactivation
COc1ccc(C2=CC(c3ccco3)n3ncnc3N2)cc1 (stereo not given)	-2%	?	1%
Clc1ccc(C2=CC(c3ccco3)n3ncnc3N2)cc1 (stereo not given)	0%	?	0%
CCc1ccc(/C=C2\SC(=S)N(CCC(=O)NCCCN3CCOCC3)C2=O)cc1	1%	25%	?
COc1ccc(Br)cc1[C@H]1[C@H]2C=CC[C@@H](C)[C@@H]2C(=O)N1Cc1ccccc1	12%	-1%	5%

Next part.
SMILES | ClpP mod | miR-21 reporter | Nrf2 block | A549 tox | Nrf2 activator | p53 reactivation
CCOC(=O)C[C@H]1c2cc(F)ccc2S(=O)(=O)N1Cc1cc(OC)c(OC)c(OC)c1 | 2% | . | . | . | . | .
CCn1nnnc1SCC(=O)Nc1ccc2c(c1)OCCO2 | 0% | -45% | ? | -2% | 0% | 10µM*
CN(C)C(=O)Cn1c(SCC(=O)Nc2ccc3c(c2)OCO3)nc2ccccc21 | 16µM* | 0% | . | -7% | 0% | -8%
Cc1nc(SCC(=O)Nc2ccc3c(c2)OCCO3)nc(C)c1C | 20µM* | -26% | -3% | 5% | 3% | 0%
CN(C)C(=O)Cn1c(SCC(=O)NCc2ccc3c(c2)OCO3)nc2ccccc21 | -2% | 0% | . | -4% | -1% | -6%
O=S(=O)(Nc1cc(O)cc2cccnc12)c1ccc(Cl)s1 | . | . | 16% | -2% | . | .
Cc1ccc(Sc2ccc([N+](=O)[O-])cc2[N+](=O)[O-])nc1 | . | 16% | 2% | -12% | 16µM* | -12%
Cc1nn(C(C)C(=O)Nc2cccc(F)c2)c(=O)c2c1sc1ccccc12 (stereo not given) | -15% | -45% | -23% | -2% | 0% | .
O=C(Cc1cccs1)Nc1cccc(-c2nc3cc4ccccc4cc3[nH]2)c1 | 28µM* | 20% | ? | ? | -2% | ?
CC(=O)Nc1cccc(NC(=O)Cc2cccs2)c1 | 3% | -3% | -26% | ? | 0% | .
O=C(CCCn1c(=O)c2cccn2c2cccnc21)NCc1ccccc1Br | ? | 1% | ? | -1% | 10% | .
COc1ccc(Br)cc1CNC(=O)c1ccc2nc(C(C)C)oc2c1 | 5% | -1% | . | 2% | 0% | .
COc1ccc(OC)c(CNC(=O)c2ccc3nc(C(C)C)oc3c2)c1 | 32µM* | 2% | . | 4% | 5% | .
O=S(=O)(c1cccc(F)c1)N1CCN(S(=O)(=O)c2ccc3c(c2)OCCO3)CC1 | . | . | 5% | 6% | . | .
O=C(Nc1ccc(/C=C/c2nc3ccccc3o2)cc1)c1cccc(C(F)(F)F)c1 | 16µM* | -9% | -4% | ? | 10% | ?
O=C(Nc1ccc(/C=C/c2nc3ccccc3o2)cc1)c1c(F)cccc1F | ? | -15% | . | -14% | 0% | .
Cc1cnc(Nc2nc3ccccc3o2)nc1C(=O)Nc1cccc(C(F)(F)F)c1 | -3% | -15% | 16µM* | ? | 7% | 5%
Cc1ccc2cccc(NC(=O)c3cccc4c(Br)cccc34)c2n1 | -4% | -10% | 6% | 7% | 0% | .
CCC(C)NC(=O)Cn1c(=O)n(-c2ccc(C)c(C)c2)c(=O)c2c(C)c(C(=O)N(CC)CC)sc21 (stereo not given) | 2% | 3% | . | 12% | 0% | .
C/C(=N\Nc1ncnc2sc(C)c(C)c12)c1ccccn1 | . | ? | ? | 23µM* | 23% | ?
Cc1sc2ncnc(N/N=C/c3cccc(O)c3)c2c1C | 0% | -65% | -4% | -5% | 8% | ?
Cc1ccccc1-c1nnc(SCCOc2ccc3c(C)cc(=O)oc3c2)o1 | 25µM* | -5% | 0% | 7% | 0% | -5%
Cc1cccc(C)c1OC(=O)CSc1nnc(CNC(=O)c2ccccc2)o1 | 1% | -7% | -10% | -3% | -1% | .

Sorted by count of non-hydrogen atoms (high to low): three of the compounds above.
SMILES | ClpP mod | miR-21 reporter | Nrf2 block | A549 tox | Nrf2 activator | p53 reactivation
Cc1ccccc1-c1nnc(SCCOc2ccc3c(C)cc(=O)oc3c2)o1 | 25µM* | -5% | 0% | 7% | 0% | -5%
CCn1nnnc1SCC(=O)Nc1ccc2c(c1)OCCO2 | 0% | -45% | ? | -2% | 0% | 10µM*
CC(=O)Nc1cccc(NC(=O)Cc2cccs2)c1 | 3% | -3% | -26% | ? | 0% | .
